According to patent publication US20260001928A1 (CORTERIA PHARMACEUTICALS, priority 2022, published 2026):

System: human LAD2 cells
Assay type: cell-based
Details: 30 min, β-hexosaminidase release, read-out: Mast Cell Degranulation (MCD) EC50
Experimental: LAD2 cells (20000 cells/well, 96-well plates and 10,000 cells/well in 384-well plates) were incubated with compounds for 30 min. The R-hexosaminidase released into the supernatants and in cell lysates was quantified using the fluorogenic substrate 4-methylumbelliferyl-N-acetyl-b-D-glucosaminide.
On the day of the assay, the lyophilized peptides were dissolved in DMSO and/or PBS 1× pH 7.4, to obtain stock solutions. The stock solutions were used to prepare working serial dilutions to have final concentrations in assay ranging from 50, 100 or 300 to 0.1 or 0.001 μM. Each peptide was tested in biological duplicates. When compounds were dissolved in DMSO, the final solvent concentration in assay was 0.5% (v/v).
The percentage of degranulation, expressed as % of R-hexosaminidase release, was calculated by dividing the fluorescence signal of the supernatant by the sum of the signals from the supernatant and cell pellet (lysed with Triton X-100, final 1%) and multiplying by 100.
Dose-response curves were generated by plotting the % of R-hexosaminidase release versus total release of cells treated with triton (y-axis) against the concentrations of peptides tested (x-axis). The Mast Cell Degranulation (MCD) EC50 values and standard errors were calculated using XLfit 5.5.0.5 based on the following equation:
4 Parameter Sigmoidal Model: f=(A+((B−A)/(1+((C/x)^D)))) […]

CSCC[C@H](NC(=O)[C@H](CC(C)C)NC(=O)CNC(=O)[C@H](Cc1ccccc1)NC(=O)[C@H](Cc1ccccc1)NC(=O)[C@H](CCC(N)=O)NC(=O)[C@H](CCC(N)=O)NC(=O)[C@@H]1CCCN1C(=O)[C@H](CCCCN)NC(=O)[C@@H]1CCCN1C(=O)[C@@H](N)CCCNC(=N)N)C(N)=O [Substance P, reference compound] was tested, and the EC50 was 360 nM.
